Target: 72 kDa type IV collagenase (Homo sapiens, UniProt P08253)
Test: Inhibition of human Matrix metalloprotease-2

Chains of the proteins cited; added tags and fusions are not shown. Lines headed by an entry give the natural chain unless they say otherwise; changes in a name come on top.
UniProt P08253: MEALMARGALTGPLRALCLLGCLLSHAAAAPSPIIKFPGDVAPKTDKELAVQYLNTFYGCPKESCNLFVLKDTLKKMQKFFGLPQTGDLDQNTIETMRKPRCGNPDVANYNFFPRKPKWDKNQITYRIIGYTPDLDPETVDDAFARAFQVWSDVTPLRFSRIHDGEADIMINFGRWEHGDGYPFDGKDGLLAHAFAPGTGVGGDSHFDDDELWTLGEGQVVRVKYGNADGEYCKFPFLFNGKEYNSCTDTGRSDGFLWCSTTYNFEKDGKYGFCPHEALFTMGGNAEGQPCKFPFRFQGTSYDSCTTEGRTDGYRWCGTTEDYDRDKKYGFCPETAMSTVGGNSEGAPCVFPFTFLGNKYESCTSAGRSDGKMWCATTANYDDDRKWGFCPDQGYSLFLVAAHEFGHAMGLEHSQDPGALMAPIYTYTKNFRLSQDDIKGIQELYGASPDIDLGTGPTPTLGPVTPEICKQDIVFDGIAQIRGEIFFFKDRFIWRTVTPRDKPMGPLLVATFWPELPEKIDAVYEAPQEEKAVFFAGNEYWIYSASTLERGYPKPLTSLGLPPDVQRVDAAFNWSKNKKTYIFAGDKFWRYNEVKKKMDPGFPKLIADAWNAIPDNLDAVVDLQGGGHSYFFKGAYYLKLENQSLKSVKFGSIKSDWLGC

CC(C)C(NS(=O)(=O)c1ccc(-c2ccc(Br)cc2)cc1)C(=O)O (stereo unspecified)
Ki: 2000 nM
